{"source": "paper PMC7587601", "about": "“A Rose Extract Protects the Skin against Stress Mediators: A Potential Role of Olfactory Receptors” (Molecules, 2020)", "format_in_all_cases": "cell-based", "key": {"OR10A6": {"molecular_target": "T1, OR10A6 (Homo sapiens, UniProt Q8NH74)", "T1 construct": "expressed in transfected cells; host or cells: HEK293T-RTP1S/RTP2", "T1 sequence (Q8NH74 1-314)": "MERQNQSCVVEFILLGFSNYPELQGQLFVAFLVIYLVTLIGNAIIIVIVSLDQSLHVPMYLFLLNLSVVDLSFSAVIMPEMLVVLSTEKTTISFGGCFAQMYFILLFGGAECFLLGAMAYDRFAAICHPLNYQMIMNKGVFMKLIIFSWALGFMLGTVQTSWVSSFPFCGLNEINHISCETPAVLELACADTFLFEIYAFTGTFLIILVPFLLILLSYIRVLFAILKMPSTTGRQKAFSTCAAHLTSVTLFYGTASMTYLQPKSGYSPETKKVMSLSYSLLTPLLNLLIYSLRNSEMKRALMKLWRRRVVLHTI", "assay": "CRE-Luciferase cAMP functional assay, HEK293T-RTP1S/RTP2 cells transfected with OR10A6", "description": "(§1) Measurement of intracellular levels of cAMP on HEK293T-RTP1S/RTP2 cells transfected with either a plasmid encoding the indicated odorant receptor (OR10A6, OR2AG2, or OR11H4), or an empty vector, was used to detect olfactory receptor activity (see Supplementary Materials Figure S2). A total of 18 compounds were screened. Dose-response curves were constructed for selected hits and the EC50 values were determined. These compounds were randomly selected based on their naturality, their capacity to bind ORs based on data from the literature, and on the likelihood of finding these molecules with a high percentage in flowers extracts.\n(§2) Measurements of OR activation are based on the CRE-Luciferase gene reporter assay. […] Luminescence emission was measured using either a Spectra Max M5 reader (Molecular Devices, Sunnyvale, CA, USA) or a FLUOstar Optima reader (BMG LABTECH GmbH, Offenburg, Germany). […] The concentration response curves were analyzed with Excel or GraphPad Prism 8.3.0 softwares (San Diego, CA, USA). […]\n(§3) encoding individual ORs and the cAMP reporter gene CRE-Luc vector (pGL4.29 [luc2P/CRE/Hygro]) (Promega) using TransIT-LT1 Transfection reagent (Mirus Bio, #MIR2300). […] After four hours of incubation under carefully controlled conditions, cells were lysed by addition of 50 μL of Lysis buffer and processed for luminescence measurement. […]"}, "OR2AG2": {"molecular_target": "T2, OR2AG2 (Homo sapiens, UniProt A6NM03)", "T2 construct": "expressed in transfected cells; host or cells: HEK293T-RTP1S/RTP2", "T2 sequence (A6NM03 1-316)": "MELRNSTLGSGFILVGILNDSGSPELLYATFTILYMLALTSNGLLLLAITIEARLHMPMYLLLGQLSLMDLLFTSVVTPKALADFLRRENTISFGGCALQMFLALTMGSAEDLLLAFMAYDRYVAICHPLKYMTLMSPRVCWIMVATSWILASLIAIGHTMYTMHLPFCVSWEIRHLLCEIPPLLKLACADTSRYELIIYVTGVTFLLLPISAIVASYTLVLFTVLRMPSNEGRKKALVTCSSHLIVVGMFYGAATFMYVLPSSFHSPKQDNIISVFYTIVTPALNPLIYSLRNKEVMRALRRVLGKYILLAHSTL", "assay": "CRE-Luciferase cAMP functional assay, HEK293T-RTP1S/RTP2 cells transfected with OR2AG2", "description": "as §1, §2, §3"}, "OR11H4": {"molecular_target": "T3, OR11H4 (Homo sapiens, UniProt Q8NGC9)", "T3 construct": "expressed in transfected cells; host or cells: HEK293T-RTP1S/RTP2", "T3 sequence (Q8NGC9 1-324)": "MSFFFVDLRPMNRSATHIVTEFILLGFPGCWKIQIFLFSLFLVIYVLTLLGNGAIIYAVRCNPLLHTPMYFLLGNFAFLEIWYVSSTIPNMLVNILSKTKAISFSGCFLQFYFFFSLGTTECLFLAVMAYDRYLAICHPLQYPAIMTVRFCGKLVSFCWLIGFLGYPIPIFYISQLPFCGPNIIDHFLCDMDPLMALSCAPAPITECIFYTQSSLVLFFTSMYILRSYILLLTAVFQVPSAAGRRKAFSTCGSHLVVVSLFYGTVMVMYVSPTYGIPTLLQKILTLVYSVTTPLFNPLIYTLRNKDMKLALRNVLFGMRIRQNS", "assay": "CRE-Luciferase cAMP functional assay, HEK293T-RTP1S/RTP2 cells transfected with OR11H4", "description": "as §1, §2, §3"}}}
{"compound": "CC(=O)/C=C/C1C(C)=CCCC1(C)C", "note": "(stereo not drawn) [α-Ionone]", "values": [{"measurement": "EC50", "setting": "OR10A6", "result": 7.48, "unit": "µM"}, {"measurement": "activation of OR10A6 (in words)", "setting": "OR10A6", "result": "specifically activated OR10A6"}, {"measurement": "EC50", "setting": "OR2AG2", "result": "> 316", "unit": "µM"}, {"measurement": "EC50", "setting": "OR11H4", "result": "> 316", "unit": "µM"}]}
